The numbers were not newly measured in US11819040B2, “Materials and methods for dietary calcium supplementation of animals” (DSM IP ASSETS B.V., priority 2017, dated 2023), which cites them from elsewhere.

The conditions of this series: in water.

calcium gluconate: the maximum soluble calcium is 2700 mg/L.
